Test results: ChEMBL document CHEMBL1154346 (Bioorg Med Chem Lett, 2009)
pIC50, pKi: −log10 of the molar value.

Protein sequences, listed by entry. Tags and fused reporters are not part of them.
UniProt P41146, whole entry: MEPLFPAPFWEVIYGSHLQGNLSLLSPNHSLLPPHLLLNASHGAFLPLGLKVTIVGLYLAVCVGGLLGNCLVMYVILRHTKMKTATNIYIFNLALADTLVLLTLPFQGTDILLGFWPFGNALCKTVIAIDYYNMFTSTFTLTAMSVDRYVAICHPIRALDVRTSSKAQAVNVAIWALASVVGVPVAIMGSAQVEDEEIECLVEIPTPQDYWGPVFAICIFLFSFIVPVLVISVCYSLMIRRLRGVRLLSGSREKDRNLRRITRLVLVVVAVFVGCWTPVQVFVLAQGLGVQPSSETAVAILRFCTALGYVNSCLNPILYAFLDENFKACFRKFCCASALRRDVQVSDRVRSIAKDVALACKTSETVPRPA
UniProt P35372, whole entry: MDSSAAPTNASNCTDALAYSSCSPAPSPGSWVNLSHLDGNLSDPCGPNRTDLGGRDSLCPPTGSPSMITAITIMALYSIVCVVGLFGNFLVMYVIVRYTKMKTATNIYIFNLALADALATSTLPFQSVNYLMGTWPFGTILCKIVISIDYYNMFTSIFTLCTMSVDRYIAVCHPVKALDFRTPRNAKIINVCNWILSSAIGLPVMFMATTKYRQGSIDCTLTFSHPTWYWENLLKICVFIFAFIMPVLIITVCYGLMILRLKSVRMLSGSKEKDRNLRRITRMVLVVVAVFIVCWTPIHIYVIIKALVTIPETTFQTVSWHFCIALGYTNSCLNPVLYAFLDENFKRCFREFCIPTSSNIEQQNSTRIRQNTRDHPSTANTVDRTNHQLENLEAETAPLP
UniProt P41144, whole entry: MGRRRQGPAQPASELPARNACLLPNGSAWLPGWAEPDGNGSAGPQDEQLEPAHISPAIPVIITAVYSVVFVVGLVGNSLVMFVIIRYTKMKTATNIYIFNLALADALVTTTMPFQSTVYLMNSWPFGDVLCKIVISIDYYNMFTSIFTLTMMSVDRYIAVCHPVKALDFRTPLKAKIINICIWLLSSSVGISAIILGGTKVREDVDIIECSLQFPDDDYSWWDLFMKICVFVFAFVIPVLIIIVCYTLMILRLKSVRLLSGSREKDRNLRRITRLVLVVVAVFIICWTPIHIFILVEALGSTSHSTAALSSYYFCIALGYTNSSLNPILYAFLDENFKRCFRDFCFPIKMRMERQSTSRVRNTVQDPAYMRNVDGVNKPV
UniProt P41143, whole entry: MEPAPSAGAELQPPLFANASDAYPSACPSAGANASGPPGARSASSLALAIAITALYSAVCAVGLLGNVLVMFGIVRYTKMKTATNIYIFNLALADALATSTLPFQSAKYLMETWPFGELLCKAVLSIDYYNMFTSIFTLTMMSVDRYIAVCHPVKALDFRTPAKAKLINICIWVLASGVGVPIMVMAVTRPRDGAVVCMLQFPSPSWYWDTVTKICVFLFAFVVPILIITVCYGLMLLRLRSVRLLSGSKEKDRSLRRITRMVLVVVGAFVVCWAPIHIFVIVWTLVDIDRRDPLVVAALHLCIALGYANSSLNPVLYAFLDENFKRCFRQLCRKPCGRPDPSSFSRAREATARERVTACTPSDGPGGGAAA

What was measured:
[1] = target: T1, Nociceptin receptor (Homo sapiens, UniProt P41146); experiment: Displacement of [3H]nociceptin from human NOP receptor expressed in CHO cells
[2] = target: Mu-type opioid receptor (Homo sapiens, UniProt P35372); experiment: Displacement of [3H]diprenorphine from human MOP receptor expressed in CHOK1 cells; settings: cho-k1
[3] = target: T1, Nociceptin receptor; experiment: Agonist activity at human NOP receptor expressed in CHO cells assessed as inhibition of forskolin-stimulated cAMP production after 2 hrs
[4] = system: Mus musculus; experiment: Antinociceptive effect in intravenously dosed ICR mouse assessed as reduction in formalin-induced licking activity after 0 to 5 mins
[5] = target: Kappa-type opioid receptor (Cavia porcellus, UniProt P41144); experiment: Displacement of [3H]U69593 from KOP receptor in guinea pig cortical tissue
[6] = target: Delta-type opioid receptor (Homo sapiens, UniProt P41143); experiment: Displacement of [3H]naltrindole from human delta opioid receptor expressed in deltaC6 cells; settings: c6

SMILES | pKi [1] | also measured
CNC(=O)Cn1c(=O)n(C2CCN(Cc3ccc4ccccc4c3)CC2)c2ccccc21 | 6.34 | –
CNC(=O)Cn1c(=O)n(C2CCN(C3CCCCCCCCC3)CC2)c2ccccc21 | 9.70 | pKi [2]: 7.96
CNC(=O)Cn1c(=O)n(C2CCN(C3CCC(c4ccccc4)CC3)CC2)c2ccccc21 (configuration not stated) | 6.60 | –
CNC(=O)Cn1c(=O)n(C2CCN(Cc3ccc4ccccc4n3)CC2)c2ccccc21 | 5.39 | –
CNC(=O)Cn1c(=O)n(C2CCN(Cc3nccc4ccccc34)CC2)c2ccccc21 | 5.98 | –
CNC(=O)CN1Cc2ccccc2N(C2CCN(C3CCCCCCCCC3)CC2)S1(=O)=O | 9.22 | pKi [2]: 8.66; pIC50 [3]: 8.28
CNC(=O)Cn1c(=O)n(C2CCN(C3CC4CCC3C4)CC2)c2ccccc21 (configuration not stated) | 6.31 | –
CNC(=O)Cn1c(=O)n(C2CCN(C3CCCC3)CC2)c2ccccc21 | 6.33 | –
CNC(=O)Cn1c(=O)n(C2CCN(CC3CCC3)CC2)c2ccccc21 | 5.59 | –
CNC(=O)Cn1c(=O)n(C2CCN(C3CCCCC3)CC2)c2ccccc21 | 6.64 | –
CNC(=O)Cn1c(=O)n(C2CCN(CCC(C)C)CC2)c2ccccc21 | 5.95 | –
CNC(=O)Cn1c(=O)n(C2CCN([C@H]3CC[C@@H](C(C)C)CC3)CC2)c2ccccc21 | – | ED50 [4]: 0.23 µmol/kg; pKi [5]: 5.57; pKi [6]: 5.15
CNC(=O)CN1Cc2ccccc2N(C2CCN(C3CCC(C(C)C)CC3)CC2)C1=O (configuration not stated) | 7.68 | pKi [2]: 7.68
CNC(=O)Cn1c(=O)n(C2CCN(Cc3ccccc3-c3ccccc3)CC2)c2ccccc21 | 7.80 | pKi [2]: 8.43
CNC(=O)Cn1c(=O)n(C2CCN(CCCC(C)C)CC2)c2ccccc21 | 6.33 | –
